Among the data in ChEMBL document CHEMBL1159120, “2,4-Diamino-5-methyl-6-substituted arylthio-furo[2,3-d]pyrimidines as novel classical and nonclassical antifolates as potential dual thymidylate synthase and dihydrofolate reductase inhibitors” (Bioorg Med Chem, 2010) are IC50 values, retold here.

Amino acid sequences for entries named in this document (tags omitted). A change or cut given only in a name is not applied to a line headed by its entry.
UniProt P04818: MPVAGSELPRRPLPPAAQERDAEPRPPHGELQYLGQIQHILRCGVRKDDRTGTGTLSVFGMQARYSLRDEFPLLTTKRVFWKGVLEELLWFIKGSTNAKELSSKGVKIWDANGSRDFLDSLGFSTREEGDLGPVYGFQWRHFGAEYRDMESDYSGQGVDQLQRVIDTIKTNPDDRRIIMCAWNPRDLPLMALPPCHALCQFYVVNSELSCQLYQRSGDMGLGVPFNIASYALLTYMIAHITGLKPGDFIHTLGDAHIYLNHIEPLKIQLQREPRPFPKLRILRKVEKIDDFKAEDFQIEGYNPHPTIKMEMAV

The target of the test is Thymidylate synthase (Homo sapiens, UniProt P04818).

pIC50: −log10 of the molar value.

In turn, `Cc1c(Sc2ccc(C(=O)N[C@@H](CCC(=O)O)C(=O)O)cc2)oc2nc(N)nc(N)c12` showed a negative logarithm of the IC50 (pIC50) of 5.27.

What is called pIC50 is the IC50 on a negative log10 scale, so that one unit is a factor of ten.
